Values quoted from earlier work, collected in US20090220503A1, “METHOD FOR TREATING CANCERS WITH INCREASED RAS SIGNALING” (THE TRUSTEES OF BOSTON UNIVERSITY, priority 2006, published 2009).

Experiments:
PKCα = PKCα (Homo sapiens, UniProt P17252); details: cited from earlier work
PKA = details: cited from earlier work

In the case of Balanol, the “δ > α: Ratio of IC50 for PKCδ to IC50 PKCα” value (PKCα) is given as 9x and the “δ > PKA: Ratio of IC50 for PKCδ to IC50 PKA” value (PKA) is given as 12x.
